Results taken from patent US9328139B2, “Cyclin based inhibitors of CDK2 and CDK4” (University of South Carolina, priority 2010, dated 2016).

Target: Cyclin A (Homo sapiens, UniProt P20248)
Assay: Previously determined kinase inhibition, cyclin A (CDK2/cyclin A)
Type: biochemical
Conditions: log of IC50 in μM

## PVKRRLDL
  LogIC50, Cyclin A: 0.08
